Earlier results in article PMC12210912, “Pharmacologic properties and inhibitory activity of 6-azasteroids against Mycobacterium leprae in vivo and in vitro” (Microbiology Spectrum, 2025).

Amino acid sequences for entries named in this document (tags omitted).
UniProt P10275, whole entry T878A: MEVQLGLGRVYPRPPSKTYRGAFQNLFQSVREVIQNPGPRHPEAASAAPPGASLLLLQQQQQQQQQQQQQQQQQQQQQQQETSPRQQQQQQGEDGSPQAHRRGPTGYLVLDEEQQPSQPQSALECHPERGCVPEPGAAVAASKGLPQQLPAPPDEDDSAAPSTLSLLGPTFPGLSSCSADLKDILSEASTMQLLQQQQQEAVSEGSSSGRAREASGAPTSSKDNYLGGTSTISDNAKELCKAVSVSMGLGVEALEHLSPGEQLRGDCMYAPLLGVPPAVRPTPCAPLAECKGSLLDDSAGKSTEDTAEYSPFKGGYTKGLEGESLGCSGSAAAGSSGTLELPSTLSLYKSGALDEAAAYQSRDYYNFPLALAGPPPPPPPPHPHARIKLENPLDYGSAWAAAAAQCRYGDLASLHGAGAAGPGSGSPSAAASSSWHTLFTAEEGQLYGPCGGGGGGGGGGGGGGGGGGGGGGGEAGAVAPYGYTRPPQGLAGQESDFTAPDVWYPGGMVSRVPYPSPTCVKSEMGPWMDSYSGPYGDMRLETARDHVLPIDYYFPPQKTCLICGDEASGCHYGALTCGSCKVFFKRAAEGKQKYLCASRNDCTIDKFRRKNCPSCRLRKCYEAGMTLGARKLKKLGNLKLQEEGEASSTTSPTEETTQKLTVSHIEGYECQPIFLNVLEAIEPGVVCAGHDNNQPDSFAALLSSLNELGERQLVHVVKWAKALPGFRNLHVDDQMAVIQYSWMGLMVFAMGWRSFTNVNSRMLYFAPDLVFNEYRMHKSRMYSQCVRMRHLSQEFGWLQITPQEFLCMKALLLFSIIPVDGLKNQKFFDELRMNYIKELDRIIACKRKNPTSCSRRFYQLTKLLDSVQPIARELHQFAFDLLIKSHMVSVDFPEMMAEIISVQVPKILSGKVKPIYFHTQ

Biological target: Androgen Receptor (Homo sapiens, UniProt P10275, T878A)
Details: read-out: Kd of agonist radioligand, AR (human); LNCaP cells (cytosol); cited from earlier work

Q: Which Kd does the source give for [^3H]methyltrienolone here?
A: The Kd was 10.8 nM.
